Experiment [1] concerns the target human Leukocyte immunoglobulin-like receptor B2 (LilrB2) expressed in HEK293 cells (human) (UniProt Q8N423). Nature of the experiment: alkaline phosphatase assay on LilrB2-expressing HEK293 cells.
The target is the same in experiment [2]. Nature of the experiment: biotinylated Aβ42 on LilrB2-expressing HEK293 cells, fluorescent streptavidin, control cells subtracted.

As to “oligomerized synthetic human Aβ1-42 peptide (oligo-Aβ42)”, the Kd – broadly, the free concentration of one partner at which half of the binding sites on the other are occupied at equilibrium, for simple one-to-one binding – is 250 nM in experiment [1] and 206 nM in experiment [2].
